Experimental data: ChEMBL document CHEMBL2448811, “Comparison of the accuracy of experimental and predicted pKa values of basic and acidic compounds” (Pharm Res, 2013)

Experiment: physchem

pKa: 8.48
SMILES: CC/C(=C(\c1ccccc1)c1ccc(OCCN(C)C)cc1)c1ccccc1 [TAMOXIFEN]
